In PubChem BioAssay AID485313 (National Center for Advancing Translational Sciences (NCATS), 2010):
In all, about 320,000 compounds went through this assay and about 7,600 (2.4%) were called active. Only results without a clear call are listed here; the source files them as inconclusive. Calls follow the shape of the dose curve; as a rule, active = well fitted activation curve with a large enough effect; inconclusive = small, poorly fitted or top-dose-only effect; inactive = no such curve, though single readings can be large or run the other way.

Test: qHTS Assay for NPC1 Promoter Activators; also: nearly all actives have a fitted effect of over 60% in size
Settings: Huh7 NPC1 promoter luciferase reporter, 24 h
Potency is read from the fitted curve at half-maximal effect.

Compound | Potency
CCOC(=O)c1ccc(NC(=O)C(C)(CCl)SC)cc1 (stereo unspecified) | inconclusive: 3.16 µM
